Assay results: patent publication US20100021936A1, “Sensor for Spores” (priority 2007, published 2010)

Tested on: germination protease (GPR)

O=C(O)c1cccc(C(=O)O)n1 [Ca-DPA, dipicolinic acid]
activation of GPR and hologram degradation: the enzyme is activated and degrades the hologram
